What all share (details): pH 7.2
The subject of test [1] is E. coli DH5a. Format: cell-based. On the procedure:
(§1) The experiments described above characterizing the activity of granulysin peptides G1-G18 relied on counting bacterial colonies on plates. This assay is quite labor intensive and would not allow evaluation of many different compounds on a number of different microbes. Therefore, we optimized an assay in which the entire procedure could be completed in a single microtiter well. Briefly, peptides are diluted in 10 mM phosphate buffer, pH 7.2 supplemented with 0.03% LB (J. Sambrook, D. W. Russell, Molecular Cloning: A Laboratory Manual (Cold Spring Harbor Laboratory Press, New York, ed. 3, 2001) pg. A2.2, Retrieved from http://openwetware.org/wiki/LB) and 25 μl is added to microtiter wells. Bacteria (25 μl) are added (˜5×10^6 colony forming units/ml) in the same buffer. After a 3-hour incubation at 37° C., 150 μl of LB is added and the plates are incubated overnight. The OD at 600 nm is read on an ELISA plate reader. The minimum inhibitory concentration (MIC) is the lowest concentration allowing no bacterial growth. The IC50 is the concentration of peptide that results in 50% growth compared to the medium.
(§2) We now describe additional peptides and their activity. The peptides have been designed, synthesized, and have been tested for lysis of E. coli and S. typhimurium (gram negative bacteria), B. cereus (gram positive bacterium). Results are shown in Table 2 along with the amino acid sequence of the peptide. Changes from the naturally occurring sequence are underlined. In general, the desired result is lysis of bacteria at low concentration (<1 μM).
(§3) In Table 2, Columns 2-7 are the MIC and IC50 (concentration required for 50% inhibition of growth) for each organism (E. coli, Salmonella, and B. cereus). The MIC (minimum inhibitory concentration) was determined as described above, in a multiwell plate assay. […] L-isomer amino acids are designated by capital letters while D-isomer amino acids are designated by lower case letters.

The test system of test [2] is B. cereus. Format: cell-based. On the procedure: as §1, §2, §3
In test [3] the test system is Salmonella. Format: cell-based, S. typhimurium. How it is done: as §1, §2, §3

With `CC[C@H](C)[C@H](NC(=O)[C@@H](NC(=O)[C@H](CCCNC(=N)N)NC(=O)[C@H](CO)NC(=O)[C@H](CCC(N)=O)NC(=O)[C@H](Cc1ccc(O)cc1)NC(=O)[C@H](CCCNC(=N)N)NC(=O)[C@H](CCCNC(=N)N)NC(=O)[C@H](CCSC)NC(=O)[C@H](Cc1ccccc1)NC(=O)[C@H](CC(N)=O)NC(=O)[C@H](CCCNC(=N)N)NC(=O)[C@H](CS)NC(=O)[C@@H](NC(=O)[C@H](CC(=O)O)NC(=O)[C@@H](N)CCCNC(=N)N)C(C)C)C(C)C)C(=O)N[C@@H](CCC(N)=O)C(=O)NCC(=O)N[C@@H](CC(C)C)C(=O)N[C@H](C(=O)O)C(C)C` [Peptide G12, reference compound], in test [1], the “E. coli DH5a MIC” value stood at 2.8 µM and the IC50 is 1750 nM. Moreover, in test [2], the “B. cereus MIC” value came out at 5.8 µM and the IC50 was 3510 nM. In test [3], it took 890 nM to reach half-maximal inhibition (IC50) and the “Salmonella MIC” value was found to be 1.4 µM.

Turning to `CC[C@H](C)[C@H](NC(=O)[C@@H](NC(=O)[C@H](CCCNC(=N)N)NC(=O)[C@H](CO)NC(=O)[C@H](CCC(N)=O)NC(=O)[C@H](Cc1ccc(O)cc1)NC(=O)[C@H](CCCNC(=N)N)NC(=O)[C@H](CCCNC(=N)N)NC(=O)[C@H](CCSC)NC(=O)[C@H](Cc1ccccc1)NC(=O)[C@H](CC(N)=O)NC(=O)[C@H](CCCNC(=N)N)NC(=O)[C@H](CO)NC(=O)[C@@H](NC(=O)[C@H](CC(=O)O)NC(=O)[C@@H](N)CCCNC(=N)N)C(C)C)C(C)C)C(=O)N[C@@H](CCC(N)=O)C(=O)NCC(=O)N[C@@H](CC(C)C)C(=O)N[C@H](C(=O)O)C(C)C` [Peptide G12.1], in test [1], the “E. coli DH5a MIC” value was >10 µM and half-maximal inhibition (IC50) was put at 7650 nM. In test [2], the “B. cereus MIC” value is >10 µM and the IC50 is > 10000 nM. In test [3], the IC50 is > 10000 nM and the “Salmonella MIC” value was >10 µM.

With `CC[C@H](C)[C@H](NC(=O)[C@@H](NC(=O)[C@H](CCCNC(=N)N)NC(=O)[C@H](CO)NC(=O)[C@H](CCC(N)=O)NC(=O)[C@H](Cc1ccc(O)cc1)NC(=O)[C@H](CCCNC(=N)N)NC(=O)[C@H](CCCNC(=N)N)NC(=O)[C@H](CCSC)NC(=O)[C@H](Cc1ccccc1)NC(=O)[C@H](CCCNC(=N)N)NC(=O)[C@H](CCCNC(=N)N)NC(=O)[C@H](CO)NC(=O)[C@@H](NC(=O)[C@H](CC(=O)O)NC(=O)[C@@H](N)CCCNC(=N)N)C(C)C)C(C)C)C(=O)N[C@@H](CCC(N)=O)C(=O)NCC(=O)N[C@@H](CC(C)C)C(=O)N[C@H](C(=O)O)C(C)C` [Peptide G12.2], in test [1], the “E. coli DH5a MIC” value stood at 2.8 µM and half-maximal inhibition (IC50) was put at 1750 nM. For the same compound, in test [2], the “B. cereus MIC” value is 5.8 µM and the IC50 turned out to be 3510 nM. For the same compound, in test [3], the half-inhibitory concentration (IC50) is 1730 nM and the “Salmonella MIC” value is 2.8 µM.

On to `CC[C@H](C)[C@H](NC(=O)[C@@H](NC(=O)[C@H](CCCNC(=N)N)NC(=O)[C@H](C)NC(=O)[C@H](CCC(N)=O)NC(=O)[C@H](Cc1ccc(O)cc1)NC(=O)[C@H](CCCNC(=N)N)NC(=O)[C@H](CCCNC(=N)N)NC(=O)[C@H](CCSC)NC(=O)[C@H](Cc1ccccc1)NC(=O)[C@H](CCCNC(=N)N)NC(=O)[C@H](CCCNC(=N)N)NC(=O)[C@H](C)NC(=O)[C@@H](NC(=O)[C@H](CC(=O)O)NC(=O)[C@@H](N)CCCNC(=N)N)C(C)C)C(C)C)C(=O)N[C@@H](CCC(N)=O)C(=O)NCC(=O)N[C@@H](CC(C)C)C(=O)N[C@H](C(=O)O)C(C)C` [Peptide G12.4], for which, in test [1], the “E. coli DH5a MIC” value amounted to 5.7 µM and 2850 nM corresponded to half-maximal inhibition (IC50). In test [2], the “B. cereus MIC” value is 5.5 µM and the IC50 is 3500 nM. Also, in test [3], the IC50 is 3510 nM and the “Salmonella MIC” value is 5.5 µM.

As to `CC[C@H](C)[C@H](NC(=O)[C@@H](NC(=O)[C@H](CCCNC(=N)N)NC(=O)[C@H](CO)NC(=O)[C@H](CCC(N)=O)NC(=O)[C@H](Cc1ccc(O)cc1)NC(=O)[C@@H](CCCNC(=N)N)NC(=O)[C@@H](CCCNC(=N)N)NC(=O)[C@H](CCSC)NC(=O)[C@H](Cc1ccccc1)NC(=O)[C@H](CCCNC(=N)N)NC(=O)[C@H](CCCNC(=N)N)NC(=O)[C@H](CO)NC(=O)[C@@H](NC(=O)[C@H](CC(=O)O)NC(=O)[C@@H](N)CCCNC(=N)N)C(C)C)C(C)C)C(=O)N[C@@H](CCC(N)=O)C(=O)NCC(=O)N[C@@H](CC(C)C)C(=O)N[C@H](C(=O)O)C(C)C` [Peptide G12.5, RDVSRRFMrrYQSRVIQGLV], in test [1], the “E. coli DH5a MIC” value is 5.7 µM and the IC50 came to 3300 nM. In test [2], the “B. cereus MIC” value was >10 µM and half-maximal inhibition (IC50) required 7700 nM. Besides, in test [3], the IC50 is > 10000 nM and the “Salmonella MIC” value is >10 µM.

In the case of `CC(C)[C@H](NC(=O)[C@H](CO)NC(=O)[C@H](CCCNC(=N)N)NC(=O)[C@@H](N)CCC(N)=O)C(=O)N[C@@H](CO)C(=O)N[C@@H](CC(N)=O)C(=O)N[C@@H](C)C(=O)N[C@@H](C)C(=O)N[C@H](C(=O)N[C@@H](CCCNC(=N)N)C(=O)N[C@H](C(=O)N[C@@H](CS)C(=O)N[C@@H](CCCNC(=N)N)C(=O)N[C@H](C(=O)NCC(=O)N[C@@H](CCCNC(=N)N)C(=O)N[C@@H](CO)C(=O)N[C@@H](CCCNC(=N)N)C(=O)N[C@@H](Cc1c[nH]c2ccccc12)C(=O)O)[C@@H](C)O)C(C)C)[C@@H](C)O` [Peptide G13, QRSVSNAATRVCRTGRSRW, reference compound], in test [1], the “E. coli DH5a MIC” value is 2.8 µM and the IC50 was 1710 nM. Also, in test [2], the “B. cereus MIC” value was determined as 2.85 µM and the concentration for half-maximal inhibition (IC50) came out at 1750 nM. In test [3], the IC50 is > 10000 nM and the “Salmonella MIC” value was >10 µM.

Turning to `CC(C)[C@H](NC(=O)[C@H](CO)NC(=O)[C@H](CCCNC(=N)N)NC(=O)[C@@H](N)CCC(N)=O)C(=O)N[C@@H](CO)C(=O)N[C@@H](CC(N)=O)C(=O)N[C@@H](C)C(=O)N[C@@H](C)C(=O)N[C@H](C(=O)N[C@@H](CCCNC(=N)N)C(=O)N[C@H](C(=O)N[C@@H](CO)C(=O)N[C@@H](CCCNC(=N)N)C(=O)N[C@H](C(=O)NCC(=O)N[C@@H](CCCNC(=N)N)C(=O)N[C@@H](CO)C(=O)N[C@@H](CCCNC(=N)N)C(=O)N[C@@H](Cc1c[nH]c2ccccc12)C(=O)O)[C@@H](C)O)C(C)C)[C@@H](C)O` [Peptide G13.1, QRSVSNAATRVSRTGRSRW], in test [1], the “E. coli DH5a MIC” value is >10 µM and the IC50 came out at 7450 nM. For the same compound, in test [2], the “B. cereus MIC” value was >10 µM and the IC50 is > 10000 nM. In test [3], the IC50 is > 10000 nM and the “Salmonella MIC” value is >10 µM.

For the compound `CC[C@H](C)[C@H](NC(=O)[C@@H](NC(=O)[C@H](CCCNC(=N)N)NC(=O)[C@H](CO)NC(=O)[C@H](CCC(N)=O)NC(=O)[C@H](Cc1ccc(O)cc1)NC(=O)[C@H](CCCNC(=N)N)NC(=O)[C@H](CCCNC(=N)N)NC(=O)[C@H](CCSC)NC(=O)[C@H](Cc1ccccc1)NC(=O)[C@H](CC(N)=O)NC(=O)[C@H](CCCNC(=N)N)NC(=O)[C@H](CO)NC(=O)[C@@H](NC(=O)[C@H](CC(=O)O)NC(=O)[C@H](CCCNC(=N)N)NC(=O)[C@H](Cc1c[nH]c2ccccc12)NC(=O)[C@H](CCCNC(=N)N)NC(=O)[C@H](CO)NC(=O)[C@H](CCCNC(=N)N)NC(=O)CN)C(C)C)C(C)C)C(=O)N[C@@H](CCC(N)=O)C(=O)NCC(=O)N[C@@H](CC(C)C)C(=O)N[C@H](C(=O)O)C(C)C` [Peptide G20.1], in test [1], the “E. coli DH5a MIC” value came to 0.7 µM and inhibition was half-maximal at 430 nM (IC50). Also, in test [2], the “B. cereus MIC” value is 0.71 µM and half-maximal inhibition (IC50) was put at 450 nM. Besides, in test [3], 420 nM corresponded to half-maximal inhibition (IC50) and the “Salmonella MIC” value worked out at 0.7 µM.

Turning to `CC[C@H](C)[C@H](NC(=O)[C@@H](NC(=O)[C@H](CCCNC(=N)N)NC(=O)[C@H](CO)NC(=O)[C@H](CCC(N)=O)NC(=O)[C@H](Cc1ccc(O)cc1)NC(=O)[C@H](CCCNC(=N)N)NC(=O)[C@H](CCCNC(=N)N)NC(=O)[C@H](CCSC)NC(=O)[C@H](Cc1ccccc1)NC(=O)[C@H](CC(N)=O)NC(=O)[C@H](CCCNC(=N)N)NC(=O)[C@H](CO)NC(=O)[C@@H](NC(=O)[C@H](CC(=O)O)NC(=O)[C@H](CCCNC(=N)N)NC(=O)[C@H](Cc1c[nH]c2ccccc12)NC(=O)[C@H](CCCNC(=N)N)NC(=O)[C@H](CO)NC(=O)[C@H](CCCNC(=N)N)NC(=O)CNC(=O)[C@@H](NC(=O)[C@H](CCCNC(=N)N)NC(=O)[C@H](CO)NC(=O)[C@@H](NC(=O)[C@H](CCCNC(=N)N)NC(=O)[C@@H](NC(=O)[C@H](C)NC(=O)[C@H](C)NC(=O)[C@H](CC(N)=O)NC(=O)[C@H](CO)NC(=O)[C@@H](NC(=O)[C@H](CO)NC(=O)[C@H](CCCNC(=N)N)NC(=O)[C@@H](N)CCC(N)=O)C(C)C)[C@@H](C)O)C(C)C)[C@@H](C)O)C(C)C)C(C)C)C(=O)N[C@@H](CCC(N)=O)C(=O)NCC(=O)N[C@@H](CC(C)C)C(=O)N[C@H](C(=O)O)C(C)C` [Peptide G21], in test [1], the “E. coli DH5a MIC” value stood at 0.35 µM and half-maximal inhibition (IC50) required 230 nM. In addition, in test [2], the “B. cereus MIC” value was 1 µM and 200 nM corresponded to half-maximal inhibition (IC50). Moreover, in test [3], the midpoint of inhibition, the IC50, lay at 210 nM and the “Salmonella MIC” value stood at 0.35 µM.

The values above are taken from patent US7745390B2, “Antimicrobial peptides” (priority 2005, dated 2010).
